Assay results as given in US10881712B2, “Neuroprotective agents derived from spider venom peptides” (THE UNIVERSITY OF QUEENSLAND, priority 2015, dated 2021).
Positions count from the first letter of the chain named. Entries after “also recorded” stand apart in the source; their conditions may differ.

What was measured:
rASIC1a = target: T1, rASIC1a (Rattus norvegicus, UniProt P55926); test: Two-electrode voltage clamp (TEVC) on Xenopus laevis oocytes expressing homomeric rASIC1a; type: cell-based
T1 construct: expressed in transfected cells; host or cells: Xenopus laevis oocytes injected with cRNA
T1 sequence (P55926 1-526): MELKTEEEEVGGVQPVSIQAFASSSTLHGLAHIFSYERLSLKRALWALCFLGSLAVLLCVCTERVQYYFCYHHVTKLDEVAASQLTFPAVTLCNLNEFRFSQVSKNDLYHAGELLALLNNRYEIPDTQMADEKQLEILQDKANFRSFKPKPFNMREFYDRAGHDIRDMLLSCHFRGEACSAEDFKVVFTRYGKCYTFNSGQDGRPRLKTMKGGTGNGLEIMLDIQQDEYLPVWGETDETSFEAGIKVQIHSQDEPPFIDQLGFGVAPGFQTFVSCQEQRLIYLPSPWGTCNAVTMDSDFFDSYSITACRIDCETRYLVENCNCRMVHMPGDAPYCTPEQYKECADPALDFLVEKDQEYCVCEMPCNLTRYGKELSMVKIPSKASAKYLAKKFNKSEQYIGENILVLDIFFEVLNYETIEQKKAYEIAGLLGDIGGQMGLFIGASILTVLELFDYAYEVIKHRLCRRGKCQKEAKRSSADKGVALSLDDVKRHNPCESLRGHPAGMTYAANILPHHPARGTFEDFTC
Procedure: The ability of the peptides of the invention to modulate ASIC currents was assessed using two-electrode voltage clamp (TEVC) electrophysiology experiments performed on Xenopus laevis oocytes expressing homomeric ASIC channels. Xenopus oocytes are widely used as an expression system for functional characterisation of ion channel modulators. TEVC allows measurement of whole-cell ion channel currents while controlling the membrane potential.
Oocytes were harvested from anaesthetised female X. laevis then defolliculated by treatment with collagenase (Sigma, type I). Oocytes were injected with in vitro transcribed ASIC cRNA (capped RNA). Oocytes were kept at 17-18° C. in ND96 solution containing 96 mM NaCl, 2 mM KCl, 1.8 mM CaCl2, 2 mM MgCl2, 5 mM HEPES, 5 mM pyruvic acid, 50 μg/ml gentamicin (pH 7.4), and fetal horse serum (2.5%), and experiments were performed at room temperature (21-22° C.) 1-3 days after cRNA injection. Oocytes were clamped at −60 mV (Warner OC-725C oocyte clamp; Warner Instruments, CT, USA) using two standard glass microelectrodes of 0.5-2 MΩ resistance when filled with 3 M KCl. Data acquisition and analysis were performed using pCLAMP software, Version 10 (Axon Instruments, CA, USA). Currents were elicited by a drop in pH from 7.45 to 6.0 using a microperfusion system to allow rapid solution exchange. All experiments were performed using ND96 solution spiked with 0.1% BSA in order to minimise adsorption of peptides to plastic tubing.

[1] = system: other ASIC homomers or heteromers; conditions: background art; cited from earlier work
rat ASIC1a (rASIC1a) = target: T2, rat ASIC1a (rASIC1a) (Rattus norvegicus, UniProt P55926); conditions: background art; cited from earlier work
T2 sequence (P55926 1-526): T1 sequence (P55926 1-526)

ASIC1a = conditions: cited from earlier work
F350A mutant rASIC1a = target: T3, F350A mutant rASIC1a (Rattus norvegicus, UniProt P55926, F350A); conditions: Sherwood et al., 2009; cited from earlier work
T3 construct: expressed in transfected cells; host or cells: Xenopus oocytes
T3 sequence (P55926 1-526 F350A): T1 sequence (P55926 1-526) with F350A

[2] = system: spontaneously hypertensive rats (SHR); test: Focal reperfusion (endothelin-1) stroke model in conscious SHR, i.c.v. administration; type: in vivo, rat; conditions: single i.c.v. dose two hours after stroke; Hi1a 2 ng/kg, PcTx1 and mutant 1 ng/kg; 72 h post-stroke
Procedure: The neuroprotective efficacy of Hi1a was assessed in a rat model of focal cerebral ischemia. In vivo experiments were conducted using a focal reperfusion model of stroke in conscious spontaneously hypertensive rats (SHR) as previously reported (McCarthy et al., Neuropharmacology 99, 650-657, 2015). Two 23-gauge stainless steel guide cannulae were stereotaxically implanted into anaesthetised animals (ketamine 75 mg/kg; xylazine 10 mg/kg; intraperitoneal) 5 days prior to stroke induction. The first cannula was implanted 3 mm dorsal to the right middle cerebral artery for stroke induction. The second cannula was implanted into the left lateral ventricle for drug administration.
After 5 days recovery, stroke was induced in conscious rats by inserting a 30-gauge injector protruding 3 mm below the previously implanted cannula. […] Only animals that achieved a level 4 stroke were included in the study. Typical behaviours associated with a level 4 stroke include continuous ipsilateral circling, clenching, dragging, failure to extend the left contralateral forelimb, chewing, jaw flexing, and shuffling with forepaws.
Compared to models of middle cerebral artery occlusion (MCAO) achieved by surgical exposure of the artery, this model has the advantage of minimal surgical intervention in the brain, and the stroke is induced in the absence of anaesthetics, which can confound the results of drug studies (Callaway et al., 1999; Sharkey et al., 1993). Stroke-induced motor deficit was assessed by counting the number of foot faults made while rats traversed a gradually narrowing ledged beam (McCarthy et al., Stroke 40, 1482-1489, 2009). Animals were trained to traverse the beam on two consecutive days prior to pre-stroke assessment. For the neurological score, postural abnormalities were assessed by elevating the rat by the tail above a flat surface and grading the severity of thorax twisting and the angle of forelimb extension. Both indicators of neurological health are scored between 0 and 3, with a score of 0 corresponding to no twisting of the thorax or complete forelimb extension towards the flat surface. A score of 3 corresponds to severe thorax twisting and a failure to extend the forelimb. The score for thorax twisting and forelimb extension are summed to give a total possible score of 6, which represents severe neurological deficit. Both behavioural tests were performed prior to stroke, and at 24 and 72 h after stroke.
At 72 h post-stroke, rats were re-anaesthetised (ketamine 75 mg/kg; xylazine 10 mg/kg; intraperitoneal) and transcardially perfused with physiologically buffered saline. Brains were removed, snap frozen and sectioned (16 μm) at eight pre-determined forebrain levels (−3.20 mm to 6.8 mm) relative to bregma. Sections were imaged, and infarct volumes were measured using the ballistic light method and corrected for edema (McCarthy et al., Stroke 40, 1482-1489, 2009).
The doses of Hi1a and PcTx1 were chosen to give approximately equivalent molar concentrations as Hi1a is twice the molecular mass of PcTx1. Drugs were dissolved in saline and infused in a volume of 3 μl over 3 min. At 3 days after stroke, the brains were perfused, removed, then snap frozen and sectioned to determine the infarct size.
In a separate series of experiments, Hi1a (2 ng/kg) was administered i.c.v. to SHR at 2, 4 or 8 hours after stroke induction. Motor-coordination (ledged beam test) and stroke-related postural abnormalities (neurological test) were evaluated at days 1 and 3 post-stroke. At 3 days after stroke, the brains were perfused, removed, then snap frozen and sectioned to determine the infarct size.

Compound: CC[C@H](C)[C@@H]1NC(=O)[C@@H](NC(=O)[C@H](CC(=O)O)NC(=O)[C@@H](N)CCC(=O)O)CSSC[C@@H]2NC(=O)[C@@H]3CSSC[C@@H](C(=O)N[C@H](C(=O)N4CCC[C@H]4C(=O)N[C@@H](CCCCN)C(=O)N[C@H](C(=O)N4CCC[C@H]4C(=O)N[C@@H](CCCCN)C(=O)N[C@H](C(=O)O)[C@@H](C)O)[C@@H](C)O)C(C)C)NC(=O)[C@H](C(C)C)NC(=O)[C@H](CCC(=O)O)NC(=O)[C@H](Cc4ccccc4)NC(=O)[C@H](CO)NC(=O)[C@H](CCCNC(=N)N)NC(=O)[C@H](CCCNC(=N)N)NC(=O)[C@H](CCCNC(=N)N)NC(=O)[C@H](CCCCN)NC(=O)[C@H](Cc4c[nH]c5ccccc45)NC(=O)[C@H](CSSC[C@H](NC(=O)CNC(=O)[C@H](CCCCN)NC(=O)[C@H](Cc4c[nH]c5ccccc45)NC(=O)[C@H](CCCCN)NC(=O)[C@@H]4CCCN4C1=O)C(=O)N[C@@H](C(C)C)C(=O)N[C@@H](CC(N)=O)C(=O)N[C@@H](CCCNC(=N)N)C(=O)N[C@@H](Cc1c[nH]cn1)C(=O)NCC(=O)N[C@@H](CC(=O)O)C(=O)N3)NC(=O)[C@H](CCC(=O)O)NC(=O)[C@H](CC(C)C)NC(=O)CNC(=O)[C@H](CCC(=O)O)NC2=O [PcTx1, reference compound]
- Time to full reversal of inhibition upon washout (rASIC1a; 10 nM peptide): ≤ 15 min
- Extent of inhibition of ASIC1a currents (full or incomplete) (rASIC1a; at saturating concentrations): full inhibition
- Reversibility of inhibition (in words) (rASIC1a; upon washout): rapidly reversible; also recorded: rapid, fully reversible inhibition
- Inhibition of other ASIC homomers or heteromers [1]: does not inhibit
- IC50 (rat ASIC1a (rASIC1a)): ~1 nM
- Effect on activation curve (ASIC1a; applied at pH 7.9, Chen et al., 2005): shifts the activation curve for ASIC1a to more alkaline values
- Effect on steady-state desensitisation (SSD) curve (ASIC1a; physiological pH of 7.4): parallel shift in the steady-state desensitisation (SSD) curve to more alkaline values
- Effect of F350A mutation on inhibition of ASIC1a (F350A mutant rASIC1a): abolishes the ability
- Infarct size in cortical (penumbral) and striatal (core) regions [2]: significant reduction in infarct volume; also recorded: reduced infarct size
